Experimental data published in patent US12227521B2, “CGRP antagonist compounds” (Nxera Pharma UK Limited, priority 2019, dated 2025).

Amino acid sequences for entries named in this document (tags omitted). Residues count along the entry.
UniProt O60894, 27-148 limits assumed: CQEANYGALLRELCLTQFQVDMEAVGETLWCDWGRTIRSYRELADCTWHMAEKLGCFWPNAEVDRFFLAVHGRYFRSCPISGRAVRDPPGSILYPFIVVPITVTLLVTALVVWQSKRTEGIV
UniProt Q16602, 23-461 limits assumed: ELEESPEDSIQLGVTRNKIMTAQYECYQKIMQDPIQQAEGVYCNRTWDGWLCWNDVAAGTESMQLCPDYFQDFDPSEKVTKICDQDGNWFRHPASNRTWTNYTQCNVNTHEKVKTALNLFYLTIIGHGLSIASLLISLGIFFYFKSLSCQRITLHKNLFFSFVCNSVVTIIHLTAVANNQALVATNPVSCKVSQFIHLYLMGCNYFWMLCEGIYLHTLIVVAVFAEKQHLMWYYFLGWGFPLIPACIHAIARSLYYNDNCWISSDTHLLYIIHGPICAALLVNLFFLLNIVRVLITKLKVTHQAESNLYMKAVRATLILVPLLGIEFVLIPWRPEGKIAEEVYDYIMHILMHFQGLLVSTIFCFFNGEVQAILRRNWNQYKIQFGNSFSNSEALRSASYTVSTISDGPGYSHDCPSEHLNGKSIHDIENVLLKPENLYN

These compounds were tested against human CGRP receptor (Homo sapiens, UniProt O60894+Q16602) (assay: cAMP functional assay (HTRF cAMP dynamic-2) in SK-N-MC cells). Conditions: SK-N-MC cells endogenously expressing human CGRP receptor; challenge with EC80 human CGRP (0.3 nM); functional pKb converted from pIC50 by modified Cheng-Prussoff equation.
Description: cAMP production following receptor activation was determined using the Homogeneous Time-Resolved Fluorescence (HTRF) cAMP dynamic-2 assay (Cisbio, France). The human neuroblastoma cell line SK-N-MC endogenously expressing the human CGRP receptor was seeded at a density of 12,500 cells/well in solid walled 96 well half area plates (Costar, Catalog Number 3688, Corning Life Sciences, Germany). After 16 h incubation at 37° C. media was removed and cells were incubated at 37° C. for 30 min in serum free media containing 500 μM IBMX (Tocris, Abingdon, UK, Catalog Number 2845) and increasing concentrations of test antagonist. Following this cells were challenged with an EC80 concentration of human CGRP (0.3 nM) for a further 30 m at 37°) and then cAMP production was determined as manufacturer's instructions before plates were read on a PheraStar fluorescence plate reader (BMG LabTech, Germany). IC50 values were derived from the inhibition curve. The pIC50 values (where pIC50=−log10 IC50) were converted to a functional pKb value using a modified Cheng-Prussoff equation where Kd=agonist EC50 and L hot=agonist challenge concentration. The pKb values of certain compounds of the invention are detailed in Table 5.

Row | CGRP pKb | SMILES
1 | 9.6 | CC1C(c2ccccc2)CC2NC(=O)c3cc4c(cn3)C[C@]3(C4)C(=O)Nc4ncc(cc43)/C=C/COCCCCCN1C2=O (single isomer, unassigned)
2 | 9.4 | CC1C(c2ccccc2)CC2NC(=O)c3cc4c(cn3)C[C@]3(C4)C(=O)Nc4ncc(cc43)/C=C/COCCOCCN1C2=O (single isomer, unassigned)
3 | 10.2 | CC1C(c2ccccc2)CC2NC(=O)c3cnc4c(c3)C[C@@]3(C4)C(=O)Nc4ncc(cc43)/C=C/CCCCN(C)CCN1C2=O (single isomer, unassigned)
4 | 10.7 | CC1C(c2ccccc2)CC2NC(=O)c3cnc4c(c3)C[C@@]3(C4)C(=O)Nc4ncc(cc43)/C=C/CCCCNCCN1C2=O (single isomer, unassigned)
5 | 10.6 | CC1C(c2ccccc2)CC2NC(=O)c3cnc4c(c3)C[C@@]3(C4)C(=O)Nc4ncc(cc43)/C=C/CN(C)CCCCCN1C2=O (single isomer, unassigned)
6 | 10.0 | CC1C(c2ccccc2)CC2NC(=O)c3cnc4c(c3)C[C@@]3(C4)C(=O)Nc4ncc(cc43)/C=C/CN(C)CCN(C)CCN1C2=O (single isomer, unassigned)
7 | 10.6 | CC1C(c2ccccc2)CC2NC(=O)c3cnc4c(c3)C[C@@]3(C4)C(=O)Nc4ncc(cc43)/C=C/COCCCOCCN1C2=O (single isomer, unassigned)
8 | 9.8 | CC1C(c2ccccc2)CC2NC(=O)c3cnc4c(c3)C[C@@]3(C4)C(=O)Nc4ncc(cc43)/C=C/COCCN(C)CCN1C2=O (single isomer, unassigned)
9 | 10.3 | CC1C(c2ccccc2)CC2NC(=O)c3cnc4c(c3)C[C@@]3(C4)C(=O)Nc4ncc(cc43)/C=C/COCCNCCN1C2=O (single isomer, unassigned)
10 | 9.9 | CC1C(c2ccccc2)CC2NC(=O)c3cnc4c(c3)C[C@@]3(C4)C(=O)Nc4ncc(cc43)/C=C/COCCOCCN1C2=O (single isomer, unassigned)
11 | 10.5 | CC1C(c2ccccc2)CC2NC(=O)c3cnc4c(c3)C[C@@]3(C4)C(=O)Nc4ncc(cc43)CCCN(C)CCCCCN1C2=O (single isomer, unassigned)
12 | 10.5 | CC1C(c2ccccc2)CC2NC(=O)c3cnc4c(c3)C[C@@]3(C4)C(=O)Nc4ncc(cc43)/C=C/COCCCCCN1C2=O (single isomer, unassigned) [2-2 Isomer 1]
13 | 8.0 | CC1C(c2ccccc2)CC2NC(=O)c3cnc4c(c3)C[C@@]3(C4)C(=O)Nc4ncc(cc43)/C=C/COCCCCCN1C2=O (single isomer, unassigned) [2-2 Isomer 2]
14 | 11.9 | CC1C(c2cccc(F)c2F)CC2NC(=O)c3cnc4c(c3)C[C@@]3(C4)C(=O)Nc4ncc(cc43)/C=C/COCCCCCN1C2=O (single isomer, unassigned) [4-1 Isomer 1]
15 | 9.7 | CC1C(c2cccc(F)c2F)CC2NC(=O)c3cnc4c(c3)C[C@@]3(C4)C(=O)Nc4ncc(cc43)/C=C/COCCCCCN1C2=O (single isomer, unassigned) [4-1 Isomer 2]

The next lines start with the compound.

Row | SMILES | CGRP pKb
16 | CC1C(c2c(F)ccc(F)c2F)CC2NC(=O)c3cc4c(cn3)C[C@]3(C4)C(=O)Nc4ncc(cc43)/C=C/COCCOCCN1C2=O (some centres unmarked) | 9.7
17 | O=C1NC2CC(c3ccccc3)CN(CCOCCOCCOC/C=C/c3cnc4c(c3)[C@]3(Cc5ccc1cc5C3)C(=O)N4)C2=O (some centres unmarked) | 7.9
18 | CC1C(c2c(F)ccc(F)c2F)CC2NC(=O)c3cnc4c(c3)C[C@@]3(C4)C(=O)Nc4ncc(cc43)/C=C/COCCOCCN1C2=O (single isomer, unassigned) | 9.3
19 | CC1C(c2cc(F)cc(F)c2F)CC2NC(=O)c3cnc4c(c3)C[C@@]3(C4)C(=O)Nc4ncc(cc43)/C=C/COCCCCCN1C2=O (single isomer, unassigned) | 8.9
20 | C[C@@H]1[C@H](c2c(F)ccc(F)c2F)C[C@@H]2NC(=O)c3cnc4c(c3)C[C@@]3(C4)C(=O)Nc4ncc(cc43)/C=C/CCCOCCCN1C2=O (single isomer, unassigned) | 11.4
21 | C[C@@H]1[C@H](c2cc(F)cc(F)c2F)C[C@@H]2NC(=O)c3cnc4c(c3)C[C@@]3(C4)C(=O)Nc4ncc(cc43)/C=C/COCCCCCN1C2=O (single isomer, unassigned) | 11.4
22 | O=C1NC2CC(c3ccccc3)CN(CCOCCOCCCc3cnc4c(c3)[C@@]3(Cc5cc1cnc5C3)C(=O)N4)C2=O (single isomer, unassigned) | 8.4
23 | O=C1NC2CC(c3ccccc3)CN(CCOCCOCCOCCCc3cnc4c(c3)[C@@]3(Cc5cc1cnc5C3)C(=O)N4)C2=O (single isomer, unassigned) | 8.3
24 | O=C1N[C@H]2C[C@@H](c3c(F)ccc(F)c3F)CN(CCCCCOC/C=C/c3cnc4c(c3)[C@@]3(Cc5cc1cnc5C3)C(=O)N4)C2=O (single isomer, unassigned) | 10.8
25 | CC1C(c2c(F)ccc(F)c2F)CC2NC(=O)c3cnc4c(c3)C[C@@]3(C4)C(=O)Nc4ncc(cc43)/C=C/COCCCCCN1C2=O (single isomer, unassigned) [1-2 Isomer 1] | 11.3
26 | CC1C(c2c(F)ccc(F)c2F)CC2NC(=O)c3cnc4c(c3)C[C@@]3(C4)C(=O)Nc4ncc(cc43)/C=C/COCCCCCN1C2=O (single isomer, unassigned) [1-2 Isomer 2] | 9.3
27 | CC1C(c2c(F)ccc(F)c2F)CC2NC(=O)c3cnc4c(c3)C[C@@]3(C4)C(=O)Nc4ncc(cc43)/C=C/COCCOCCCN1C2=O (single isomer, unassigned) [1-3 Isomer 1] | 11.1
28 | CC1C(c2c(F)ccc(F)c2F)CC2NC(=O)c3cnc4c(c3)C[C@@]3(C4)C(=O)Nc4ncc(cc43)/C=C/COCCOCCCN1C2=O (single isomer, unassigned) [1-3 Isomer 2] | 9.3
29 | CC1C(c2c(F)ccc(F)c2F)CC2NC(=O)c3cnc4c(c3)C[C@@]3(C4)C(=O)Nc4ncc(cc43)/C=C/CCOCCOCCN1C2=O (single isomer, unassigned) [1-4 Isomer 1] | 11.1
30 | CC1C(c2c(F)ccc(F)c2F)CC2NC(=O)c3cnc4c(c3)C[C@@]3(C4)C(=O)Nc4ncc(cc43)/C=C/CCOCCOCCN1C2=O (single isomer, unassigned) [1-4 Isomer 2] | 9.9
31 | CC1C(c2c(F)ccc(F)c2F)CC2NC(=O)c3cnc4c(c3)C[C@@]3(C4)C(=O)Nc4ncc(cc43)/C=C/CCOCCCCN1C2=O (single isomer, unassigned) [1-5 Isomer 1] | 11.6
32 | CC1C(c2c(F)ccc(F)c2F)CC2NC(=O)c3cnc4c(c3)C[C@@]3(C4)C(=O)Nc4ncc(cc43)/C=C/CCOCCCCN1C2=O (single isomer, unassigned) [1-5 Isomer 2] | 7.7
33 | CC1C(c2c(F)ccc(F)c2F)CC2NC(=O)c3cnc4c(c3)C[C@@]3(C4)C(=O)Nc4ncc(cc43)/C=C/COCCCOCCN1C2=O (single isomer, unassigned) [1-6 Isomer 1] | 11.1
34 | CC1C(c2c(F)ccc(F)c2F)CC2NC(=O)c3cnc4c(c3)C[C@@]3(C4)C(=O)Nc4ncc(cc43)/C=C/COCCCOCCN1C2=O (single isomer, unassigned) [1-6 Isomer 2] | 8.9
35 | CC1C(c2c(F)ccc(F)c2F)CC2NC(=O)c3cnc4c(c3)C[C@@]3(C4)C(=O)Nc4ncc(cc43)/C=C/CCCOCCCN1C2=O (single isomer, unassigned) [1-7 Isomer 2] | 8.9
36 | CC1C(c2c(F)ccc(F)c2F)CC2NC(=O)c3cnc4c(c3)C[C@@]3(C4)C(=O)Nc4ncc(cc43)/C=C/CCCOCCCN1C2=O (single isomer, unassigned) [1-7 Isomer 3] | 9.1
37 | CC1C(c2c(F)ccc(F)c2F)CC2NC(=O)c3cnc4c(c3)C[C@@]3(C4)C(=O)Nc4ncc(cc43)/C=C/COCCCC(F)(F)CN1C2=O (single isomer, unassigned) [1-8 Isomer 1] | 11.3
38 | CC1C(c2c(F)ccc(F)c2F)CC2NC(=O)c3cnc4c(c3)C[C@@]3(C4)C(=O)Nc4ncc(cc43)/C=C/COCCCC(F)(F)CN1C2=O (single isomer, unassigned) [1-8 Isomer 2] | 9.2
39 | CC1C(c2cc(F)cc(F)c2F)CC2NC(=O)c3cnc4c(c3)C[C@@]3(C4)C(=O)Nc4ncc(cc43)/C=C/COCCOCCN1C2=O (single isomer, unassigned) [3-1 Isomer 1] | 11.1
40 | CC1C(c2cc(F)cc(F)c2F)CC2NC(=O)c3cnc4c(c3)C[C@@]3(C4)C(=O)Nc4ncc(cc43)/C=C/COCCOCCN1C2=O (single isomer, unassigned) [3-1 Isomer 2] | 8.2
41 | CC1C(c2cccc(F)c2F)CC2NC(=O)c3cnc4c(c3)C[C@@]3(C4)C(=O)Nc4ncc(cc43)/C=C/COCCOCCN1C2=O (single isomer, unassigned) [4-2 Isomer 1] | 11.1
42 | CC1C(c2cccc(F)c2F)CC2NC(=O)c3cnc4c(c3)C[C@@]3(C4)C(=O)Nc4ncc(cc43)/C=C/COCCOCCN1C2=O (single isomer, unassigned) [4-2 Isomer 2] | 9.2
43 | O=C1NC2CC(c3c(F)ccc(F)c3F)CN(CCCCCOC/C=C/c3cnc4c(c3)[C@@]3(Cc5cc1cnc5C3)C(=O)N4)C2=O (single isomer, unassigned) [5-1 Isomer 2] | 8.8
44 | O=C1NC2CC(c3c(F)ccc(F)c3F)CN(CCCCCOC/C=C/c3cnc4c(c3)[C@@]3(Cc5cc1cnc5C3)C(=O)N4)C2=O (single isomer, unassigned) [5-1 Isomer 3] | 8.9
